Measurements from paper PMC8376931, “Structure activity relationships and the binding mode of quinolinone-pyrimidine hybrids as reversal agents of multidrug resistance mediated by P-gp” (Scientific Reports, 2021).

Amino acid sequences for entries named in this document (tags omitted).
UniProt P08183, whole entry: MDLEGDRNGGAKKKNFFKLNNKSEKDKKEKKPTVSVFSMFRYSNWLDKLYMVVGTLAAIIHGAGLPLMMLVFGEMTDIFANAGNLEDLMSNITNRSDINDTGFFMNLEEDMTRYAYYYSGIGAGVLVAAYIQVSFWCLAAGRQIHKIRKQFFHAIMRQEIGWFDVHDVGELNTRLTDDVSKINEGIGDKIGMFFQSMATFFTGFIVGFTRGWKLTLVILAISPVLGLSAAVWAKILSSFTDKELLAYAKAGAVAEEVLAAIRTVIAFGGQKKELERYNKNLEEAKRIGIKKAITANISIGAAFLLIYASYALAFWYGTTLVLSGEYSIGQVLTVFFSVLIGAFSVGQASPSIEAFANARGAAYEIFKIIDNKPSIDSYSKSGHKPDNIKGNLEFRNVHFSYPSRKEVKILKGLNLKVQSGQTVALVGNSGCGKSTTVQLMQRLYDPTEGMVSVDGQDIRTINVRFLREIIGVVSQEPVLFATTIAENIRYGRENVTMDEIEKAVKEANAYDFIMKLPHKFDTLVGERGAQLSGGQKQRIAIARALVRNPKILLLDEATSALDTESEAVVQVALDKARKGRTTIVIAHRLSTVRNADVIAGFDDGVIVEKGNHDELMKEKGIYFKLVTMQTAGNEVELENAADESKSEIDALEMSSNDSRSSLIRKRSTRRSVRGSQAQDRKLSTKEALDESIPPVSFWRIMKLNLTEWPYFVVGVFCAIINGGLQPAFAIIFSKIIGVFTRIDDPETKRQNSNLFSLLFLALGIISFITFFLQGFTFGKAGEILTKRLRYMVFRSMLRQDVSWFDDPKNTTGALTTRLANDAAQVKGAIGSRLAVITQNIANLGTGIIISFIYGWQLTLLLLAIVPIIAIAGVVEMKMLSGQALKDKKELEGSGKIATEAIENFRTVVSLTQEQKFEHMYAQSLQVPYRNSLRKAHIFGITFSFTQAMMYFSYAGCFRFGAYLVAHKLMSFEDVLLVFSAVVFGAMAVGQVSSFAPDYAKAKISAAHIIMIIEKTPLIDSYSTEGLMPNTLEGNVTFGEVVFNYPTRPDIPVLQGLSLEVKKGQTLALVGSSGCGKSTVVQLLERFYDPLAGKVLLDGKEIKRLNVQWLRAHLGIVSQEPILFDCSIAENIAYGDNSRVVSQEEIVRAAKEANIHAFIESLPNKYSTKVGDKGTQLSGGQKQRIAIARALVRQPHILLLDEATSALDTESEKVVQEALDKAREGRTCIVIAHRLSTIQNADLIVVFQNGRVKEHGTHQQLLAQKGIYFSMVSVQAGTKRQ

Legend:
P-gp = P-gp (Homo sapiens, UniProt P08183)
Lucena 1 cells = test: MTT cytotoxicity assay in Lucena 1; settings: ratio of IC50 to Dox

- Dox fluorescence intensity, fold lower in Lucena 1 with respect to K562 (P-gp): 2.31 fold
Compound: COc1cccc2c1C(=O)c1c(O)c3c(c(O)c1C2=O)C[C@@](O)(C(=O)CO)C[C@@H]3O[C@H]1C[C@H](N)[C@H](O)[C@H](C)O1 [doxorubicin, reference compound]
- fold resistance of Lucena 1 compared to parental K562 (Lucena 1 cells): 35.8 fold
